Measured values as given in ChEMBL document CHEMBL1144711, “Polyaminohydroxamic acids and polyaminobenzamides as isoform selective histone deacetylase inhibitors” (J Med Chem, 2008).

Sequences of proteins named here, by UniProt entry; tags and fusion partners are left off. A change or cut given only in a name is not applied to a line headed by its entry.
UniProt Q13547: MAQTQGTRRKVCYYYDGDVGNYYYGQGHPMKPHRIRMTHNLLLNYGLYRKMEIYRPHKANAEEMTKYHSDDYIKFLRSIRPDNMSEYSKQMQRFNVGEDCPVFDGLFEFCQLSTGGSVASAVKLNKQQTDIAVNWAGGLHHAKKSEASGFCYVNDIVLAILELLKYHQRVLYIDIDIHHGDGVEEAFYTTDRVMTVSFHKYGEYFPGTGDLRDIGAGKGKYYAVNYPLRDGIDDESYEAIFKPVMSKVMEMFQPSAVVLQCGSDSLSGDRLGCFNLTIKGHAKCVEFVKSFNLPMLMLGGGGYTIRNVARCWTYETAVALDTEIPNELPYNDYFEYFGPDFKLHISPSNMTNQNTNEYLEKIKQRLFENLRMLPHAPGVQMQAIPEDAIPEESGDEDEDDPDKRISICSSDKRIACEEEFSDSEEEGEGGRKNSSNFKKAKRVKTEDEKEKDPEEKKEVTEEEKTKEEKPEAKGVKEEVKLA
UniProt O15379: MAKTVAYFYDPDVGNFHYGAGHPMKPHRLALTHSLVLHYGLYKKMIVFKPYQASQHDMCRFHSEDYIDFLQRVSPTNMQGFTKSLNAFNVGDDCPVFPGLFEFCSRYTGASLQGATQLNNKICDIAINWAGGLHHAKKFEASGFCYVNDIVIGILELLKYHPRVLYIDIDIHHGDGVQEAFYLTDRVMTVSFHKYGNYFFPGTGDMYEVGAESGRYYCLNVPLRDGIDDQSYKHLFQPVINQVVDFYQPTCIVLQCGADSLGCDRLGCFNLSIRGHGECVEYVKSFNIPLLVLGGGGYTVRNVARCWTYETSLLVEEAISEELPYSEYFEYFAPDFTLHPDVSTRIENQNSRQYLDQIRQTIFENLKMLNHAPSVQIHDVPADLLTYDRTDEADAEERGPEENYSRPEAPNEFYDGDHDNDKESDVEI
UniProt Q9UBN7: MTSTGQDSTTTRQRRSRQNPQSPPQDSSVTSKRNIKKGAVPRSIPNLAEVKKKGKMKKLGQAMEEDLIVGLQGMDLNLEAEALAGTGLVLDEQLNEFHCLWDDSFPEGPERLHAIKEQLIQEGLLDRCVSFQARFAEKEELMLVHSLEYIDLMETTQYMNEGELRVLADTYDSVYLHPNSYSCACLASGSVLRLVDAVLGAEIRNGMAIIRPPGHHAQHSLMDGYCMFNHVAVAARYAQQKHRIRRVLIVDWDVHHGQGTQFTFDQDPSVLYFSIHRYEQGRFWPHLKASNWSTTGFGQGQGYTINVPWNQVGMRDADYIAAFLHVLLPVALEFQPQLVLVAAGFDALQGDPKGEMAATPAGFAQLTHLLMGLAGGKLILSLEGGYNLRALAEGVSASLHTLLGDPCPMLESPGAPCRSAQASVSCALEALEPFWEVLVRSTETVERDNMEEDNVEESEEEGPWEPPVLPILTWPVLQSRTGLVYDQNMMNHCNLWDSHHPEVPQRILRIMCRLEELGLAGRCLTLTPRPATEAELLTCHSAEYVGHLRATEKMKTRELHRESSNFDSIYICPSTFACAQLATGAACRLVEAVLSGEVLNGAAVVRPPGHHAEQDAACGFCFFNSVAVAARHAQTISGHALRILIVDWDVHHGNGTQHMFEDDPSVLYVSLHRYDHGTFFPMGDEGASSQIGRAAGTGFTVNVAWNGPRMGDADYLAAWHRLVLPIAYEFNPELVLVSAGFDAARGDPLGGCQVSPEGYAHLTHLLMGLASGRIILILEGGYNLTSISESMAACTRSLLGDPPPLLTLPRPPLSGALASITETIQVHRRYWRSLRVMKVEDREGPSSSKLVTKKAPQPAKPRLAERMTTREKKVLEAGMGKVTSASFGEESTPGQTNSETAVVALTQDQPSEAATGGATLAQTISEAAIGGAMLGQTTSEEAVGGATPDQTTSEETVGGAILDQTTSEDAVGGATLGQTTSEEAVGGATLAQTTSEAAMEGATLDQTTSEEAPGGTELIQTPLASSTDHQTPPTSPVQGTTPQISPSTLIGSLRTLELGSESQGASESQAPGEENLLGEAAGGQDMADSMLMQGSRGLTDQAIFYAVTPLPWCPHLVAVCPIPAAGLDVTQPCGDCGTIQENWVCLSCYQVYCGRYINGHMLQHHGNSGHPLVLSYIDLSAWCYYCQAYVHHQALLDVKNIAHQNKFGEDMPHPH
UniProt Q92769: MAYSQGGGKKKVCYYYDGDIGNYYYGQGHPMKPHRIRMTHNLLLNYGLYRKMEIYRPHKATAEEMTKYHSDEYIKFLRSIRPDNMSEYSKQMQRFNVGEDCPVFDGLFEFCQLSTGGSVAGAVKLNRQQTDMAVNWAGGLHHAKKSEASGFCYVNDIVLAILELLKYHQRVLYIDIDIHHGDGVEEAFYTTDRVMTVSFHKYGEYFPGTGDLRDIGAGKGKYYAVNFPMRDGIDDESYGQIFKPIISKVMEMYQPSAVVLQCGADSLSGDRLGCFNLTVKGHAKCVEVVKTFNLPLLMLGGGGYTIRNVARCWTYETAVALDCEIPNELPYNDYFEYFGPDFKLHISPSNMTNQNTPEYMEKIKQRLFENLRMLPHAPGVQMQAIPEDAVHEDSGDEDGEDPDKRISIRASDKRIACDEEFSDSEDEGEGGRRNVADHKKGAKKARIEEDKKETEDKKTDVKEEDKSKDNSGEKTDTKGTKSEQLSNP
UniProt Q9BY41: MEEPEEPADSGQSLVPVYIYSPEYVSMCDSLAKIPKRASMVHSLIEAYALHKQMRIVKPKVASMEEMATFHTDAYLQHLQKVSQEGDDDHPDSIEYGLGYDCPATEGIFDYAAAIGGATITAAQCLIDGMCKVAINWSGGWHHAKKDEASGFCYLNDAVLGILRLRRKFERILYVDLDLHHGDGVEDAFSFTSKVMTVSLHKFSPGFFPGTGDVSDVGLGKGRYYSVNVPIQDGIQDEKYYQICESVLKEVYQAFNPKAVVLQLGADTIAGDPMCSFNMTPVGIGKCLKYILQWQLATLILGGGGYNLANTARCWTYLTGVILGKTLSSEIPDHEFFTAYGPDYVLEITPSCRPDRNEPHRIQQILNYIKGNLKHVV
UniProt Q96DB2: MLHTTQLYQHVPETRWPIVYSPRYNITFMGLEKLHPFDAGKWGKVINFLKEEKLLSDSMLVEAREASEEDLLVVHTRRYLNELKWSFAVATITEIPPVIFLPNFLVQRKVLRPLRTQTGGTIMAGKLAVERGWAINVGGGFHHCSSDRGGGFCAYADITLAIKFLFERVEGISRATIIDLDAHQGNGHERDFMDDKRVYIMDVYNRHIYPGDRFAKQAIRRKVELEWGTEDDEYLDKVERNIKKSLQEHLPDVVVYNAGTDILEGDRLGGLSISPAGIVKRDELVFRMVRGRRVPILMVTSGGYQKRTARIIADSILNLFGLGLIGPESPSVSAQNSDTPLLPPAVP
UniProt P56524: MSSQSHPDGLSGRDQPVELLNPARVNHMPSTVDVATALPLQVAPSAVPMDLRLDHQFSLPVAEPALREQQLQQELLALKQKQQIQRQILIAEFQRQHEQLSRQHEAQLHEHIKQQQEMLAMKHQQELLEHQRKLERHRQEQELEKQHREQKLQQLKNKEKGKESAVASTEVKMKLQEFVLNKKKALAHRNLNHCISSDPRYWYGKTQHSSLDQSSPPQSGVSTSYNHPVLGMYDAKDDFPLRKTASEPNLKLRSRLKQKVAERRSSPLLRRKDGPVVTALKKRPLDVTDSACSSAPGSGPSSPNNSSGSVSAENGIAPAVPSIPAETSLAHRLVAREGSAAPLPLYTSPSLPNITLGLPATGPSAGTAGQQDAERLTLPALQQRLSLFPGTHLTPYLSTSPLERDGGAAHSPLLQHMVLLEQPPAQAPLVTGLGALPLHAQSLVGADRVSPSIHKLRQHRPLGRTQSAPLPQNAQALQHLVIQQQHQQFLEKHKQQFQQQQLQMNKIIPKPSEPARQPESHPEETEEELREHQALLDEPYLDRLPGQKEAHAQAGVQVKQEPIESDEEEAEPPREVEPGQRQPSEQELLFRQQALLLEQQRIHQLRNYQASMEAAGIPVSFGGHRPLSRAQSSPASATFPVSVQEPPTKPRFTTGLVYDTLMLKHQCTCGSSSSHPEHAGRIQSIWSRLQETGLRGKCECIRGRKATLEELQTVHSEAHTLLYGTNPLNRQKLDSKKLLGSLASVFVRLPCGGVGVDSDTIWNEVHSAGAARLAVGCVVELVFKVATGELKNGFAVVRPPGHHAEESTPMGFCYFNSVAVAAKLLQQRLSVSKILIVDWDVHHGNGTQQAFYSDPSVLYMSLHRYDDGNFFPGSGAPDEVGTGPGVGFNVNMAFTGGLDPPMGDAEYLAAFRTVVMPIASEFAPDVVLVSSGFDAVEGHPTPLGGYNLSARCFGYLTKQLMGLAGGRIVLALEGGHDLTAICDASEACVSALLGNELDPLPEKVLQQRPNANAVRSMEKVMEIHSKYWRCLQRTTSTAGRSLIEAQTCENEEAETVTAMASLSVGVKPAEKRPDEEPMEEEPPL
UniProt Q9UKV0: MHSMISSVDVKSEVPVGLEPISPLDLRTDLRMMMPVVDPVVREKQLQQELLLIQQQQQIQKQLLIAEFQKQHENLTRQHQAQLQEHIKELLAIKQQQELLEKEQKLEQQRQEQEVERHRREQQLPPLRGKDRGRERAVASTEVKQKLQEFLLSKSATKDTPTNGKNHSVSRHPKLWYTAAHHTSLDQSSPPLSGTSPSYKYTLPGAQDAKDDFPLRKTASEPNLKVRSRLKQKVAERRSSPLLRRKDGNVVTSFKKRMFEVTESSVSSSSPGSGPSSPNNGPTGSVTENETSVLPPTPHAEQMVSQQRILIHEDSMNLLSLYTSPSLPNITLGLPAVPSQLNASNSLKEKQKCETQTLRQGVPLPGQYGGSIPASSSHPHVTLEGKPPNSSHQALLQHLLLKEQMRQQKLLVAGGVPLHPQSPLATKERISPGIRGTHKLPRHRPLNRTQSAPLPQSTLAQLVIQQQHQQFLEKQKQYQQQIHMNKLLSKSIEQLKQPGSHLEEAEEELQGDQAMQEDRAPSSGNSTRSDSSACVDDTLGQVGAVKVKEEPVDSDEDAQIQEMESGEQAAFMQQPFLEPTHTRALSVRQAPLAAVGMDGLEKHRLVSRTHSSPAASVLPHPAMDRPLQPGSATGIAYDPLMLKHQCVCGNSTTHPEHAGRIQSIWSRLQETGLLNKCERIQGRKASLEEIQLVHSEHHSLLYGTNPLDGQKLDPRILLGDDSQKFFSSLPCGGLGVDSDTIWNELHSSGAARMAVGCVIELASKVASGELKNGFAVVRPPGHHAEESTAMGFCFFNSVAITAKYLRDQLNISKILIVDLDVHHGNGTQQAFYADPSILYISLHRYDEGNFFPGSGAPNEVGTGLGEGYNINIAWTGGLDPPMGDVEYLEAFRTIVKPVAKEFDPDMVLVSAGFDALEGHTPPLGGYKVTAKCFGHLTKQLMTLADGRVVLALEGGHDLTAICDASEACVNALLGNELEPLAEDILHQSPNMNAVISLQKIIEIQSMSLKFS
UniProt Q969S8: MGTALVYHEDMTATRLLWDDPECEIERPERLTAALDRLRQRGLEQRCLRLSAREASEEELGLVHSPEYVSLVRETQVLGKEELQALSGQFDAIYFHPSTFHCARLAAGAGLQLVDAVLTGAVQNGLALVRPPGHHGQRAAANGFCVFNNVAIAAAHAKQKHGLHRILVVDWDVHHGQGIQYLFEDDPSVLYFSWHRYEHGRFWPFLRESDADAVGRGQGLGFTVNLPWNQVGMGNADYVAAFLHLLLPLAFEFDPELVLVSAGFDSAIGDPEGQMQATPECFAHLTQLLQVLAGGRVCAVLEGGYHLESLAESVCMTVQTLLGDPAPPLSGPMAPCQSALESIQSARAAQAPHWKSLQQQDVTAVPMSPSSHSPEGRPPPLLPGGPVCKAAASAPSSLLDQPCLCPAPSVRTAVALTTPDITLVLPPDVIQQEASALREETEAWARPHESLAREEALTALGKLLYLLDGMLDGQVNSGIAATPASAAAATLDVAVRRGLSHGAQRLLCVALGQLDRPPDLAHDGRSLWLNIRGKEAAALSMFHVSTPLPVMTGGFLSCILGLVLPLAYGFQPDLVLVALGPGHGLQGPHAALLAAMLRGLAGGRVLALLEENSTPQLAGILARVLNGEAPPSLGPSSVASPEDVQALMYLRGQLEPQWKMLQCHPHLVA

Target: Histone deacetylase (Homo sapiens) (UniProt Q13547+O15379+Q9UBN7+Q92769+Q9UQL6+Q8WUI4+Q9BY41+Q96DB2+P56524+Q9UKV0+Q969S8)
Conditions: HeLa, at 1 µM

inhibition: 51.5%
SMILES: CC(C)(C)c1ccc(CNCCCCNCCCNC(=O)CCCCCC(=O)NO)cc1
